Source: US20210215714A1, “COMPLEMENT ALTERNATIVE PATHWAY-ASSOCIATED NEPHROPATHY BIOMARKERS” (Achillion Pharmaceuticals, Inc., priority 2018, published 2021)

The chains behind the UniProt entries cited, without tags or fusion partners. Residues count along the entry.
UniProt P00746, 26-253: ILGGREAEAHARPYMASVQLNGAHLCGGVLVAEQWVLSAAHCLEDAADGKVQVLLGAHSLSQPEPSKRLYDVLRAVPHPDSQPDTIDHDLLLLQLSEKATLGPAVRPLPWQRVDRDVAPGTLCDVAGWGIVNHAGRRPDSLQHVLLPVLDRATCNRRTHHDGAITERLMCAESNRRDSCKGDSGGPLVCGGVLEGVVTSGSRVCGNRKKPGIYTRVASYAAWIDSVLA

Legend:
[1] = target: T1, fD (Homo sapiens, UniProt P00746); conditions: read-out: binding affinity to human fD, KD
[2] = target: T1, fD; test: biochemical

`CC(=O)c1nn(CC(=O)N2C[C@H](F)C[C@H]2C(=O)Nc2cccc(Br)n2)c2ccc(-c3cnc(C)nc3)cc12` [Compound 1, (2S,4R)-1-(2-(3-acetyl-5-(2-methylpyrimidin-5-yl)-1H-indazol-1-yl)acetyl)-N-(6-bromopyridin-2-yl)-4-fluoropyrrolidine-2-carboxamide] showed a Kd [1] of 0.54 nM and an IC50 [2] of 17 nM.
